In PubChem BioAssay AID881 (National Center for Advancing Translational Sciences (NCATS), 2007):
This is a selection; strong and weak results do not stand in their true shares. Some of these compounds have results that are not shown, active ones among them. The source made the active and inactive calls. Calls come from the whole dose curve; as a rule, active = well fitted inhibition curve with a large enough effect; inconclusive = small, poorly fitted or top-dose-only effect; inactive = no such curve, though single readings can be large or run the other way.

Amino acid sequences for entries named in this document (tags omitted).
UniProt O15296, whole entry: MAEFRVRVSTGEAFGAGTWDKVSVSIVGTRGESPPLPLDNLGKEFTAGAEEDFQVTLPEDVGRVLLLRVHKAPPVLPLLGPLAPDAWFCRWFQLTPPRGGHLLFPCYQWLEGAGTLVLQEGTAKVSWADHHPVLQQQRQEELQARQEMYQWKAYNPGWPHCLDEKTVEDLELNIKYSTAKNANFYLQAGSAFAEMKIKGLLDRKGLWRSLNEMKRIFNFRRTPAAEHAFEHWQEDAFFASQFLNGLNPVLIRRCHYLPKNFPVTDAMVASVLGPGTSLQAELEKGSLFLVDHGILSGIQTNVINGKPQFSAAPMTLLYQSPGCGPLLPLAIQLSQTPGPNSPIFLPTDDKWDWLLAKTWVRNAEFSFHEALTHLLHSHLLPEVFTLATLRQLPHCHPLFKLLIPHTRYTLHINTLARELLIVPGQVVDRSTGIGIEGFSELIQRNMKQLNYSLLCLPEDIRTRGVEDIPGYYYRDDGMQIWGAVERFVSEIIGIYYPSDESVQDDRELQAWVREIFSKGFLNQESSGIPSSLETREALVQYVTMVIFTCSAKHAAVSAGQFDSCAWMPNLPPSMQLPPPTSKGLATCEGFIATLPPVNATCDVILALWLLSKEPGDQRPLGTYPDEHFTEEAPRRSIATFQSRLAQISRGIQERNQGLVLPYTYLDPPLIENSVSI

target: Polyunsaturated fatty acid lipoxygenase ALOX15B (Homo sapiens) (UniProt O15296); assay: qHTS Assay for Inhibitors of 15-hLO-2 (15-human lipoxygenase 2); conditions: purified 15hLO-2, xylenol orange hydroperoxide absorbance; at 11.4 µM unless noted; note: nearly all actives have a fitted effect of over 60% in size
Description: Assay Overview: NIH Molecular Libraries Screening Centers Network [MLSCN] NIH Chemical Genomics Center [NCGC] MLSCN Grant: MH081283-01A1 PI Name: Holman, T.R., University of California, Santa Cruz Human lipoxygenase 15hLO-2 is a member of the closely related lipoxygenase family of enzymes which catalyze the site-specific oxidation of arachidonic acid to various hormone precursor molecules and as such is a candidate for drug development in a variety of disease areas, such as cancer and inflammation. Inhibition of 15hLO-2 activity was screened by utilizing arachidonic acid as a substrate. The extent of hydroperoxide product formation was measured by a secondary chromogenic reaction in which xylenol orange (XO, Sigma-Aldrich, cat. number 39,818-7) reacts with the ferric ions produced from the reaction between the hydroperoxide and ferrous ions. The Fe(III)-XO complex is characterized with red-shifted absorbance at 560 nm. A purified preparation of human 15hLO-2 was supplied by Professor Ted Holman, University of California, Santa Cruz.
Assay Protocol: Buffer: 25 mM Hepes pH 7.5, 0.01% Triton X-100. Reagents/Controls: Buffer in columns 3 and 4 as negative control (no enzyme). Substrate solution: 45 uM arachidonic acid (Sigma-Aldrich, St. Louis, MO) final concentration dispensed throughout the plate. Enzyme: 50 nM 15hLO-2 final concentration in columns 1, 2, 5-48. Column 1 is neutral (100% activity). Column 2 contained pin-transferred titration of NDGA (nordihidroguaiaretic acid, Sigma-Aldrich, N 5023, top concentration 10 mM in DMSO, then 1:2 dilution in duplicate). (Dilution factor: 23 nL into 4 uL.) Chromogenic detection reagent (divalent iron/xylenol orange, Fe-XO): 200 uM xylenol orange plus 300 uM ferrous ammonium sulfate prepared freshly in 50 mM sulfuric acid. Assay Steps: Three uL of enzyme were dispensed to 1536-well Greiner black clear bottom plates. Compounds and controls (23 nL) were transferred via Kalypsys PinTool. The plates were incubated for 15 min at room temperature, and then 1 uL of substrate solution was added to start the reaction. After room temperature incubation for 90 minutes, 4 uL of Fe-XO solution was added to each well followed by a short spin (1000 rpm, 15 sec) and the plates were then incubated for 30 min. The absorbance at 405 and 573 nm were measured using ViewLux (Perkin-Elmer) High-throughput CCD imager and absorbance protocol settings. The 573-to-405 absorbance ratio was used to compute reaction progress.
% is set by controls: 0 for no effect and ±100 for the full control effect.

| Structure (SMILES) | activity change, negative = inhibition |
| --- | --- |
| C=C(C)C#C[C@@](O)(C(=O)OC1CCN(C)CC1)c1ccccc1 | inactive: -1.29% |
| CN1CC[C@H](OC(=O)[C@](O)(c2ccccc2)C2CCCC2)C1 | inactive: -1.44% |
| O=C(OC1CN2CCC1CC2)C(CO)(c1ccccc1)c1ccccc1 (stereo unspecified) | inactive: 2.04% [at 2.29 µM] |
| CN1CCC[C@H](OC(=O)[C@](O)(c2ccccc2)C2CCCC2)C1 | inactive: -3.1% |
| CN(C)c1cccc(C(=O)NCC2(N(C)C)CCCCC2)c1 | inactive: 6.51% [at 57.1 µM] |
| CC(C)N1C(=O)CC2(CCN(CCOC(=O)C(O)(c3ccccc3)c3ccccc3)CC2)C1=O | inactive: 8.15% [at 57.1 µM] |
